Assay results published in US10059688B2, “Protein tyrosine kinase modulators and methods of use” (BETTA PHARMACEUTICALS CO., LTD., priority 2013, dated 2018).

Amino acid sequences for entries named in this document (tags omitted). Residues count along the entry.
UniProt Q9UM73, 19-1620: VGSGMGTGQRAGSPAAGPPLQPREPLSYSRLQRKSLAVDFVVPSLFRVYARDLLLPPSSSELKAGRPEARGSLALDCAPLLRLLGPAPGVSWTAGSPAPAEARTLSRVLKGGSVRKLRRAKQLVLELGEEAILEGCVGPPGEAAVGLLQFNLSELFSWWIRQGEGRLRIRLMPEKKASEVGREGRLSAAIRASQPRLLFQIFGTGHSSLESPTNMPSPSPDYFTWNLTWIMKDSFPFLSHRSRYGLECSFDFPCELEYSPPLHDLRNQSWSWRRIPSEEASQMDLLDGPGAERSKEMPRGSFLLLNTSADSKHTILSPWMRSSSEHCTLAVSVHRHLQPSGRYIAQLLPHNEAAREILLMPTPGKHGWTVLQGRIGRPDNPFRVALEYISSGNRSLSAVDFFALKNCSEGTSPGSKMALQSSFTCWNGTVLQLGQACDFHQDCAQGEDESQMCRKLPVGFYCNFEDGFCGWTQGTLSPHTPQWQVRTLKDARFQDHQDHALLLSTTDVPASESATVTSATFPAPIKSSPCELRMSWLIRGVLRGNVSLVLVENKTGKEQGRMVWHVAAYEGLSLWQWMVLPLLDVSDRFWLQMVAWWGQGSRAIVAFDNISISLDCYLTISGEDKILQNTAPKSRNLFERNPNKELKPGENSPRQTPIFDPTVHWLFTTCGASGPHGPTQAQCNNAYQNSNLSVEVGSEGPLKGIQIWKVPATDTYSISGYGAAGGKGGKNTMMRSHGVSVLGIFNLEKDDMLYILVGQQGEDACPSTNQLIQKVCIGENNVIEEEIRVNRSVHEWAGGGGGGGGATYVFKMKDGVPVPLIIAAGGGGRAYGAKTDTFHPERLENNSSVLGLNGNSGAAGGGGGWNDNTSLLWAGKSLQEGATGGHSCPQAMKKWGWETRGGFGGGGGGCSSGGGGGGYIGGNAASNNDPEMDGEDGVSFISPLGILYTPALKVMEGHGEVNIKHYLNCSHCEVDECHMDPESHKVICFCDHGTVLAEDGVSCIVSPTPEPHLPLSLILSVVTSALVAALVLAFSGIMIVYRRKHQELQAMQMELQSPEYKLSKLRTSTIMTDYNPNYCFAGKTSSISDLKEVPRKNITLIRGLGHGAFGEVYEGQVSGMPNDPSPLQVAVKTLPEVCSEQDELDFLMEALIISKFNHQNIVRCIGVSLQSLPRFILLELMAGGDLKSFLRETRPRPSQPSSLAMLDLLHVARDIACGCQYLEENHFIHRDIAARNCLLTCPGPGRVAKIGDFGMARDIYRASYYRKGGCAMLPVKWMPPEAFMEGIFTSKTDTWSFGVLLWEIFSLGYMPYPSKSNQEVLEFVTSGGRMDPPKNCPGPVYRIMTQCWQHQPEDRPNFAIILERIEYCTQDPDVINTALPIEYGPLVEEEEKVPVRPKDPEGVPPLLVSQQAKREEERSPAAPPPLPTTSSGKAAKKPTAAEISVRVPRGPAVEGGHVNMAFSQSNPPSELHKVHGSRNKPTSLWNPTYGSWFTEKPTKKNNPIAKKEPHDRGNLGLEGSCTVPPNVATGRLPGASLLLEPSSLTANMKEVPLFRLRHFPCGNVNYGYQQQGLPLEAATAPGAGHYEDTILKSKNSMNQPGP

Tests used:
ALK = ALK (Homo sapiens (Human), UniProt Q9UM73); assay: Kinase assay (IC50), fluorescence peptide assay; assay type: biochemical; details: 10 pt curve, 1 μM top concentration, Km ATP
EGFR (ErbB1) = EGFR (ErbB1) (Homo sapiens (Human), UniProt P00533); assay: Kinase assay (IC50), fluorescence peptide assay; assay type: biochemical; details: EGFR WT; 10 pt curve, 10 μM top concentration, Km ATP
EGFR (ErbB1) L858R = EGFR (ErbB1) L858R (Homo sapiens (Human), UniProt P00533, L858R); assay: Kinase assay (IC50), fluorescence peptide assay; details: read-out: IC50 EGFR (ErbB1) L858R; 10 pt curve, 1 μM top concentration, Km ATP
EGFR (ErbB1) T790M L858R = EGFR (ErbB1) T790M L858R (Homo sapiens (Human), UniProt P00533, L858R/T790M); details: read-out: IC50 EGFR (ErbB1) T790M L858R; 10 pt curve, 1 μM top concentration, Km ATP
EGFR (ErbB1) T790M = EGFR (ErbB1) T790M (Homo sapiens (Human), UniProt P00533, T790M); assay: Kinase assay (IC50), fluorescence peptide assay; assay type: biochemical; details: 10 pt curve, 1 μM top concentration, Km ATP

Substance | IC50 (ALK) [nM] | IC50 (EGFR (ErbB1)) [nM] | IC50 (EGFR (ErbB1) L858R) [nM] | IC50 (EGFR (ErbB1) T790M L858R) [nM] | IC50 (EGFR (ErbB1) T790M) [nM]
N-(5-(5-chloro-4-(2-(2-(dimethylamino)-2-oxoactyl)phenylamino)pyrimidin-2-ylamino)-2-(2-(dimethylamino)ethoxy)phenyl)acrylamide [Example 115] | 8.62 | – | – | – | –
N-(5-(5-chloro-4-(2-(2-(dimethylamino)-2-oxoactyl)phenylamino)pyrimidin-2-ylamino)-4-methoxy-2-(4-methylpiperazin-1-yl)phenyl)acrylamide [Example 74] | 9.33 | 513 | 422 | 15.5 | 15.8
